The numbers were not newly measured in US8716182B2, “Liquid aqueous crop protection formulations” (BASF SE, priority 2008, dated 2014), which cites them from elsewhere.

The conditions of this data set: miscible means fully miscible with water.

Take hexylene glycol: the “solubility in water at 20° C.” value was “(500 g/l)”.
